# Yeast mating assay 2: variants of the scFv Ab-91

All variants were tested on one target, the spike HR2 peptide PDVDLGDISGINAS (SARS-CoV-2).

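The parent was found by panning a naive human phage display library on the peptide. Library AAYL51 holds single substitutions and randomly drawn double and triple substitutions in the CDRs. AlphaSeq pools MATa yeast showing the antibodies with MATalpha yeast showing the peptide. Binding brings cells together so that they mate, and sequencing counts the barcode pairs among the diploids. The ratio of observed to expected reads was calibrated, replicate by replicate, on BCL2-family standards whose Kd was known from biolayer interferometry. There are three technical replicates.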

The variants keep the light chain, the linker and the frameworks of Ab-91 (scFv order VL, the linker GGGGSGGGGSGGGGS, VH).
VL: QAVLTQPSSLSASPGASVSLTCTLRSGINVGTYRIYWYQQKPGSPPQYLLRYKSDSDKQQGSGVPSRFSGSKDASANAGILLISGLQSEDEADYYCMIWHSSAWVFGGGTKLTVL
VH: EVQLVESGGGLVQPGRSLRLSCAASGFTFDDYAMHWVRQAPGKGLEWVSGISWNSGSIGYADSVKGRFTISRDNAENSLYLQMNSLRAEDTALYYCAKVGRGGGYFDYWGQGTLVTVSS

Positions count from residue 1 of the parent VH; G56S puts S in place of G.
Values are log10 of the apparent Kd in nM; lower means stronger binding.
Replicates are averaged; those with no signal do not enter the mean.
Where no diploid with the target was found in that replicate, the entry reads "n.d.": below detection, most likely a poor binder, though not proof of it.
Empty control strains, which show no peptide, gave a signal in 21% of pairings with library AAYL51; the median was 4.54 and 95% of these signals were weaker than 3.26. No background was subtracted. The control count says in how many pairings with the empty strains this scFv gave a signal, with their mean in brackets.

{"changes": "G56S V99S G102P", "replicates, log10 nM": "n.d. n.d. n.d.", "mean log10 Kd (nM)": "n.d.", "empty controls": "2 of 9 (4.08)"}
{"changes": "T28A I51L S52V", "replicates, log10 nM": "n.d. n.d. n.d.", "mean log10 Kd (nM)": "n.d.", "empty controls": "1 of 9 (5.09)"}
{"changes": "T28A D107P Y108T", "replicates, log10 nM": "4.79 n.d. 3.44", "mean log10 Kd (nM)": "4.11", "empty controls": "0 of 9"}
{"changes": "T28I G59K D62W", "replicates, log10 nM": "n.d. n.d. n.d.", "mean log10 Kd (nM)": "n.d.", "empty controls": "1 of 9 (3.16)"}
{"changes": "M34K G103W F106V", "replicates, log10 nM": "6.21 n.d. n.d.", "mean log10 Kd (nM)": "6.21", "empty controls": "1 of 9 (3.63)"}
{"changes": "H35K V64I G103R", "replicates, log10 nM": "n.d. n.d. n.d.", "mean log10 Kd (nM)": "n.d.", "empty controls": "0 of 9"}
{"changes": "I51P D62V D107P", "replicates, log10 nM": "n.d. n.d. n.d.", "mean log10 Kd (nM)": "n.d.", "empty controls": "1 of 9 (3.95)"}
{"changes": "S55K G100V G103K", "replicates, log10 nM": "2.12 2.28 2.38", "mean log10 Kd (nM)": "2.26", "empty controls": "2 of 9 (3.77)"}
{"changes": "F29L Y32R M34Y", "replicates, log10 nM": "n.d. n.d. n.d.", "mean log10 Kd (nM)": "n.d.", "empty controls": "0 of 9"}
{"changes": "I58T K65E G104V", "replicates, log10 nM": "3.20 3.05 2.67", "mean log10 Kd (nM)": "2.97", "empty controls": "7 of 9 (5.10)"}
{"changes": "D30G G56V S57W", "replicates, log10 nM": "n.d. n.d. n.d.", "mean log10 Kd (nM)": "n.d.", "empty controls": "1 of 9 (3.79)"}
{"changes": "A61I D62T V64N", "replicates, log10 nM": "n.d. n.d. n.d.", "mean log10 Kd (nM)": "n.d.", "empty controls": "0 of 9"}
{"changes": "G26H R101A G103F", "replicates, log10 nM": "6.40 4.73 5.01", "mean log10 Kd (nM)": "5.38", "empty controls": "5 of 9 (3.96)"}
{"changes": "I51F", "replicates, log10 nM": "3.80 4.77 3.27", "mean log10 Kd (nM)": "3.95", "empty controls": "5 of 9 (5.19)"}
{"changes": "I51D S55I G100H", "replicates, log10 nM": "n.d. n.d. n.d.", "mean log10 Kd (nM)": "n.d.", "empty controls": "3 of 9 (3.77)"}
{"changes": "D31W V64Y V99R", "replicates, log10 nM": "n.d. n.d. n.d.", "mean log10 Kd (nM)": "n.d.", "empty controls": "0 of 9"}
{"changes": "S52A G56F Y60F", "replicates, log10 nM": "3.80 4.03 n.d.", "mean log10 Kd (nM)": "3.92", "empty controls": "4 of 9 (4.36)"}
{"changes": "H35C F106C D107P", "replicates, log10 nM": "n.d. 4.09 n.d.", "mean log10 Kd (nM)": "4.09", "empty controls": "0 of 9"}
{"changes": "A33C Y60D R101D", "replicates, log10 nM": "n.d. 5.51 n.d.", "mean log10 Kd (nM)": "5.51", "empty controls": "2 of 9 (5.00)"}
{"changes": "G26H V64N F106E", "replicates, log10 nM": "3.81 6.48 n.d.", "mean log10 Kd (nM)": "5.14", "empty controls": "6 of 9 (4.69)"}
{"changes": "M34G G56V", "replicates, log10 nM": "5.19 4.66 n.d.", "mean log10 Kd (nM)": "4.92", "empty controls": "6 of 9 (4.88)"}
{"changes": "T28E G56T G59N", "replicates, log10 nM": "n.d. n.d. n.d.", "mean log10 Kd (nM)": "n.d.", "empty controls": "0 of 9"}
{"changes": "H35S G59T D107H", "replicates, log10 nM": "n.d. n.d. n.d.", "mean log10 Kd (nM)": "n.d.", "empty controls": "3 of 9 (4.89)"}
{"changes": "F27S N54M F106I", "replicates, log10 nM": "n.d. n.d. n.d.", "mean log10 Kd (nM)": "n.d.", "empty controls": "0 of 9"}
{"changes": "G56D Y60I G104L", "replicates, log10 nM": "n.d. n.d. 4.69", "mean log10 Kd (nM)": "4.69", "empty controls": "2 of 9 (3.49)"}
{"changes": "A33L F106W", "replicates, log10 nM": "n.d. n.d. n.d.", "mean log10 Kd (nM)": "n.d.", "empty controls": "1 of 9 (2.52)"}
{"changes": "I58S G59A Y108L", "replicates, log10 nM": "3.24 3.57 3.00", "mean log10 Kd (nM)": "3.27", "empty controls": "1 of 9 (3.84)"}
{"changes": "V64L G103F", "replicates, log10 nM": "n.d. 3.67 n.d.", "mean log10 Kd (nM)": "3.67", "empty controls": "4 of 9 (4.16)"}
{"changes": "M34H S55K D62V", "replicates, log10 nM": "n.d. n.d. n.d.", "mean log10 Kd (nM)": "n.d.", "empty controls": "0 of 9"}

Data: MIT Lincoln Laboratory AlphaSeq set, Engelhart et al. 2022, doi:10.1038/s41597-022-01779-4, as distributed in FLAb.